Assay results taken from patent publication US10246462B2, “Chemokine receptor modulators and uses thereof” (FLX Bio, Inc., priority 2016, dated 2019).

Protein sequences, listed by entry. Tags and fused reporters are not part of them. Lines headed by an entry give the natural chain unless they say otherwise; changes in a name come on top.
UniProt P51679: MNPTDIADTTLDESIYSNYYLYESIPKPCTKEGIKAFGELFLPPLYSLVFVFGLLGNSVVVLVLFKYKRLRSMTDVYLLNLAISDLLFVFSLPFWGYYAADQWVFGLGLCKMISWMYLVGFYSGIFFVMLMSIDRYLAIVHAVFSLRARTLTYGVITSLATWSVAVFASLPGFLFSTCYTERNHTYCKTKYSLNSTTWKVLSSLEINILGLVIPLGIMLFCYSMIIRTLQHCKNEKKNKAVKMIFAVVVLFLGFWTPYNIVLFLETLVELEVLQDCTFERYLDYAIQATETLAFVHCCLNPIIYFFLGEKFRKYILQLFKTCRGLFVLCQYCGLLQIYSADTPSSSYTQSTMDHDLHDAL

These compounds were tested against CCR4 (Homo sapiens (Human), UniProt P51679) (assay: Calcium mobilization (Ca Flux) assay).
Type: cell-based
Description: Calcium Mobilization Assay. Calcium mobilization experiments may be performed by labeling the human T-cell line CEM with […] dye (45 min at room temperature), washing with PBS, and re-suspending into flux buffer (HBSS with 1% FBS). For each experiment, 1×10^6 cells may be incubated at 37° C. in the cuvette of a PTI spectrometer, and the ratio of 410/490 nm emission plotted over time (typically 2-3 minutes), with compounds added at 5 seconds, followed by MDC, TARC or other chemokines.

| Structure (SMILES) | IC50 [nM] |
| --- | --- |
| Cc1nn([C@H](C)c2ccc(Cl)cc2Cl)c2nc(N3CC[C@H](N4CCC4)[C@H](C)C3)cnc12 [Example 13, 6-((3R,4S)-4-(Azetidin-1-yl)-3-methylpiperidin-1-yl)-1-((R)-1-(2,4-dichlorophenyl)ethyl)-3-methyl-1H-pyrazolo[3,4-b]pyrazine hydrochloride] | < 100 |
| Cc1nn([C@H](C)c2ccc(Cl)cc2Cl)c2nc(N3CC[C@H](N4CCCCCC4)[C@H](C)C3)cnc12 [Example 14, 6-((3R,4S)-4-(Azepan-1-yl)-3-methylpiperidin-1-yl)-1-((R)-1-(2,4-dichlorophenyl)ethyl)-3-methyl-1H-pyrazolo[3,4-b]pyrazine hydrochloride] | < 100 |
| Cc1nn([C@H](C)c2ccc(Cl)cc2Cl)c2nc(N3CC[C@@H](N4CCCCCC4)[C@@H](C)C3)cnc12 [Example 15, 6-((3S,4R)-4-(Azepan-1-yl)-3-methylpiperidin-1-yl)-1-((R)-1-(2,4-dichlorophenyl)ethyl)-3-methyl-1H-pyrazolo[3,4-b]pyrazine hydrochloride] | > 500 |
| Cc1nn([C@H](C)c2ccc(Cl)cc2Cl)c2nc(N3CC[C@H](N4CCC[C@H]4CO)[C@H](C)C3)cnc12 [Example 31, ((S)-1-((3R,4S)-1-(1-((R)-1-(2,4-Dichlorophenyl)ethyl)-3-methyl-1H-pyrazolo[3,4-b]pyrazin-6-yl)-3-methylpiperidin-4-yl)pyrrolidin-2-yl)methanol hydrochloride] | < 100 |
| Cc1nn([C@H](C)c2ccc(Cl)cc2Cl)c2nc(N3CC[C@@H](N4CCC[C@H]4CO)[C@@H](C)C3)cnc12 [Example 32, ((S)-1-((3S,4R)-1-(1-((R)-1-(2,4-Dichlorophenyl)ethyl)-3-methyl-1H-pyrazolo[3,4-b]pyrazin-6-yl)-3-methylpiperidin-4-yl)pyrrolidin-2-yl)methanol hydrochloride] | > 500 |

Counter-ions that a name gives are not always drawn.
